Values of other authors, collected in paper PMC10818749, “Toxicity Studies of Cardiac-Targeting Peptide Reveal a Robust Safety Profile” (Pharmaceutics, 2024).

Tested on: Chinese hamster ovarian cell line
Conditions: cited from earlier work
[1] = cell lysates, liquid chromatography–mass spectrometry, ref [53]

## transportan
5 µM, not at higher treatment concentrations, ref [52]
  recovery of cells from the effects: could recover
[1]
  changes to cell metabolism (rank): most significant changes
  metabolic effects: affected cellular redox potential, depleted energy, and the pools of purines/pyrimidines
